# Measured affinities in a library of Ab-14 light chain variants

The measurements come from Engelhart et al. 2022 (doi:10.1038/s41597-022-01779-4) through the FLAb antibody collection.

Antigen: PDVDLGDISGINAS, a 14-residue peptide of the SARS-CoV-2 spike HR2 region.

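Library AAYL50 holds single substitutions and randomly drawn double and triple substitutions in the CDRs. In AlphaSeq, yeast of one mating type display the scFv and yeast of the other type display the target. After mating in shaken culture at 30 °C for 16 h, diploids were selected and their barcode pairs sequenced. Read counts were normalised to the haploid input and turned into Kd by a linear fit to BCL2-family pairs of known affinity, for each replicate. There are three technical replicates.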

Parent: Ab-14, a human scFv built as VH, the linker GGGGSGGGGSGGGGS, VL. Only the CDRs of the light chain vary.
VH: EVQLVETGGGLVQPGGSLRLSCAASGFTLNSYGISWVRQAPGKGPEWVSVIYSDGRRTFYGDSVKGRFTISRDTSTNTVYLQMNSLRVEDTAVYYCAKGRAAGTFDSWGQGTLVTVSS
VL: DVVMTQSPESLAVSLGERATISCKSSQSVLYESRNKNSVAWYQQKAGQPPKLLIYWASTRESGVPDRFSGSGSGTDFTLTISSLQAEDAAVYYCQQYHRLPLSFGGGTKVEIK

The parent's light chain CDRs are KSSQSVLYESRNKNSVA, WASTRES, QQYHRLPLS; each variant's own CDRs replace them letter for letter. Every variant below is changed at R60 of the VL (sequential numbering). Values are apparent Kd, the geometric mean of the replicates that gave a signal; lower means stronger binding. A pair that was not seen in any replicate is written "no signal"; this usually means weak binding, but a binder can also be missed. The list is sorted by this average, lowest first, undetected variants last. Background: pairings of library AAYL50 with three empty control strains gave a value in 18% of cases (median 15 µM, 5th percentile 970 nM). Values in that range, when seen in few replicates, are hard to tell from nonspecific mating.

Variant KSSQSVLYESRNKNSVA | WASTMES | QDYERLPLS gave 15 nM (3 of 3 replicates). With KSSQSVLYESRNKNSVA | WASTKES | QQYHRLPLS the result was 20 nM (3 of 3 replicates). With KSSQHVLDESRNKNSVA | WASTQES | QQYHRLPLS the result was 24 nM (3 of 3 replicates). With KSSQSVLYESRGKNSVA | WASVVES | QQYHRLPLS the result was 40 nM (3 of 3 replicates). For KSSQSVLYESRNKNSVA | WASTPES | QQYHRLPLS, the assay gave 74 nM (3 of 3 replicates). Variant KSSQSVLYESRNKNSVA | WASTSES | QLYHRLPLL gave 560 nM (2 of 3 replicates). With KSSQSVLYESRNKNSLA | WASTTES | QQYHRLPLS the result was 590 nM (3 of 3 replicates). Variant KSSQSVLYSSRNKNSVA | WASTAEN | QQYHRLPLS showed 790 nM (3 of 3 replicates). With KSSQSVLYESRNKNSVW | WKSTNES | QQYHRLPLS the result was 830 nM (1 of 3 replicates).

Variant KSSQSVLEESRNKNSVA | WASTYES | QQYHWLPLS gave 850 nM (3 of 3 replicates). For KSSQFVLYESRNKNSVA | WAWTQES | QQYHRLPLS, the assay gave 1.3 µM (1 of 3 replicates). With KSSQSMLYESRNKNSVA | WASTQEA | QQYHRLPLS the result was 1.3 µM (3 of 3 replicates). Variant KSSQSVLYESRNKNSVA | WATTVES | QQYHRLPMS showed 1.7 µM (1 of 3 replicates). For KSRQSVLYESRNKASVA | WASTKES | QQYHRLPLS, the assay gave 1.9 µM (2 of 3 replicates). With KSSQSVLYESRNKNSVA | WASTEES | QQYHRLHLI the result was 2.2 µM (1 of 3 replicates). Variant KSSQSVLYESRNKNSVA | WANTHIS | QQYHRLPLS showed 2.6 µM (3 of 3 replicates). For KSSQSVLYEFRNKNSVA | WASTFES | QQYHRYPLS, the assay gave 2.8 µM (1 of 3 replicates). Variant KSSQSVLYESRNKMSVA | YASTAES | QQYHRLPLS gave 6.4 µM (1 of 3 replicates).

Variant KSSWSVLYENRNKNSVA | WASTQES | QQYHRLPLS showed 6.6 µM (2 of 3 replicates). For ESCQSVLYESRNKNSVA | WASTYES | QQYHRLPLS, the assay gave 6.6 µM (1 of 3 replicates). For YSSQSVLYESRNKNSVA | WASTMES | SQYHRLPLS, the assay gave 7.3 µM (1 of 3 replicates). Variant KSSQSVGYESRNKNSVA | WASTGES | QHYHRLPLS gave 12 µM (1 of 3 replicates). For KSSQSVLYESRNKNSVK | WASTHES | QQYHRLPES, the assay gave 16 µM (2 of 3 replicates). Variant KSSQSVDYESRVKNSVA | WASTNES | QQYHRLPLS gave 16 µM (1 of 3 replicates). Variant KSSQSVLYESRNKNSVA | WASTQES | QQYHQHPLS showed 21 µM (1 of 3 replicates). With KSSQSVLYESRNKNSVA | WASTHES | QQAHRLPLS the result was 23 µM (1 of 3 replicates). For HSSQSVLYESRNKNSVA | WACTCES | QQYHRLPLS, the assay gave 24 µM (2 of 3 replicates).

Variant KSSQYVLYESRNKNSVA | WASTWES | QQYHHLPLS gave 36 µM (2 of 3 replicates). Variant KSSQSVLYESRNKNSVA | WASKNES | QQYHRLPLV gave 42 µM (3 of 3 replicates). For KSSQSNLYESRNKNSVA | WASTFPS | QQYHRLPLS, the assay gave 60 µM (2 of 3 replicates). Variant KSSQSVLYESRNKNSVA | WAITEES | QWYHRLPLS gave 110 µM (1 of 3 replicates). For KSSQSVLYESRRKNSVA | WASNCES | QQYHRLPLS, the assay gave 120 µM (1 of 3 replicates). For KSSQSVLYESRNKNSVA | WASTMES | QQYIRLPNS, the assay gave 490 µM (2 of 3 replicates). For KSSQSVLYESFNKNSVA | WASTWES | QQHHRLPLS, the assay gave 840 µM (1 of 3 replicates). Variant KSSQPVLYESRFKNSVA | WASTWES | QQYHRLPLS gave no signal (0 of 3 replicates). Variant KSSQSVLSESRNKNSVA | WASTEES | QQYHRLPLS gave no signal (0 of 3 replicates).

For KSSQSVLYESRNKNSVN | WASTKES | QQYHRLPLS, the assay gave no signal (0 of 3 replicates). For KSSQSVLYESRNKNSVI | WASTPES | QQYHRVPLS, the assay gave no signal (0 of 3 replicates). With KSRQSVLYESRNKNSVA | WASTEES | QQYHRLPLS the result was no signal (0 of 3 replicates). Variant KSSISVLYESRNKNSVA | WASTAES | QQHHRLPLS showed no signal (0 of 3 replicates). For KSSQSVLYESRNKNSVA | WASTPES | QDYHNLPLS, the assay gave no signal (0 of 3 replicates). For KSSQSVLYESRNKNSVR | WASTALS | QQYHRLPLS, the assay gave no signal (0 of 3 replicates). With KSSYSVLYESRNKNSVA | WASNLES | QQYHRLPLS the result was no signal (0 of 3 replicates). For KSSASVLYDSRNKNSVA | WASTSES | QQYHRLPLS, the assay gave no signal (0 of 3 replicates). With KSSQSVLYESRNKNSVA | WAFTMES | QQGHRLPLS the result was no signal (0 of 3 replicates).

With KSLQSVLYESRNKNSVA | WASTEES | QQYHRRPLS the result was no signal (0 of 3 replicates). For KSSQSVLYESRNKNSVA | WASTDES | QQYHRLPLQ, the assay gave no signal (0 of 3 replicates). Variant KSSQSVLYESRNKNSVA | WASHFES | SQYHRLPLS showed no signal (0 of 3 replicates). Variant HSSQSVLYESRNKNSGA | WASTVES | QQYHRLPLS showed no signal (0 of 3 replicates).

Repeated from above, the 7 best binders with a signal in all replicates:

KSSQSVLYESRNKNSVA | WASTMES | QDYERLPLS: 15 nM (3 of 3 replicates).
KSSQSVLYESRNKNSVA | WASTKES | QQYHRLPLS: 20 nM (3 of 3 replicates).
KSSQHVLDESRNKNSVA | WASTQES | QQYHRLPLS: 24 nM (3 of 3 replicates).
KSSQSVLYESRGKNSVA | WASVVES | QQYHRLPLS: 40 nM (3 of 3 replicates).
KSSQSVLYESRNKNSVA | WASTPES | QQYHRLPLS: 74 nM (3 of 3 replicates).
KSSQSVLYESRNKNSLA | WASTTES | QQYHRLPLS: 590 nM (3 of 3 replicates).
KSSQSVLYSSRNKNSVA | WASTAEN | QQYHRLPLS: 790 nM (3 of 3 replicates).